In patent US12473298B2, “Amide compounds, preparation method therefor, and use thereof in the medical field” (Shanghai Synergy Pharmaceutical Sciences Co., Ltd., priority 2019, dated 2025):

Columns and labels:
[1] = system: human diffuse large B-cell lymphoma cells (Karpas 422 cell); experiment: Karpas 422 cell proliferation, Calcein AM staining; assay type: cell-based; settings: data of 14th day, read-out: Karpas422 Proliferation IC50 Nanomoles per Liter
[2] = system: human diffuse large B-cell lymphoma cells (WSU-DLCL2 cell); experiment: Pharmacodynamic experiment, WSU-DLCL2 transplanted tumor model in mice; assay type: in vivo, mice (CB17/SCID)
[3] = system: human diffuse large B-cell lymphoma cells (WSU-DLCL2 cell); experiment: Pharmacodynamic experiment in combination with other drugs, WSU-DLCL2 transplanted tumor model in mice; assay type: in vivo, mice (CB17/SCID)
[4] = 50 mg/kg, intraperitoneally, once a day for 21 days

Row | Compound | IC50 [1] [nM] | IC50 ([1]; Homo sapiens, KARPAS-422) [nM] | other results
1 | CCN(c1cc(-c2ccc3c(c2)CCC32CCN(CC(F)(F)C(F)(F)F)CC2)cc(C(=O)NCc2c(OC)cc(C)[nH]c2=O)c1C)C1CCOCC1 [Example 42] | 2.6 |  | 
2 | CCN(c1cc(-c2ccc3c(c2)N(C)CC32CCOCC2)cc(C(=O)NCc2c(C)cc(C)[nH]c2=O)c1C)C1CCOCC1 [Example 72, N-((4,6-dimethyl-2-oxo-1,2-dihydropyridin-3-yl)methyl)-3-(ethyl(tetrahydro-2H-pyran-4-yl)amino)-2-methyl-5-(1-methyl-2′,3′,5′,6′-tetrahydrospiro[dihydroindole-3,4′-pyran]-6-yl)benzamide] |  |  | inhibition in vivo at 150 mg/kg ([2]; Mus musculus, WSUDLCL2, po, 504 h, read-out: inhibited tumor growth): 85%; inhibitory effect on tumor growth ([3]; 125 mg/kg intragastrically twice a day for 21 days, combined with four positive control drugs (CHOP)): exceeded 98%; tumor disappearance ([3]; 125 mg/kg, combined with four positive control drugs (CHOP)): tumors in several mouse disappeared; inhibited tumor growth ([3]; 125 mg/kg, intragastrically, twice a day for 21 days): 83%
3 | CCN(c1cc(-c2ccc3c(c2)C=CC32CCN(CC(F)(F)F)CC2)cc(C(=O)NCc2c(OC)cc(C)[nH]c2=O)c1C)C1CCOCC1 [Example 35, 3-(ethyl(tetrahydro-2H-pyran-4-yl)amino)-N-((4-methoxy-6-methyl-2-oxo-1,2-dihydropyridin-3-yl)methyl)-2-methyl-5-(1′-(2,2,2-trifluoroethyl)spiro[indene-1,4′-piperidine]-5-yl)benzamide] |  | 3.5 | 
4 | CC[C@H](C)n1cc(C)c2c(C(=O)NCc3c(C)cc(C)[nH]c3=O)cc(-c3ccc(N4CCNCC4)nc3)cc21 [GSK126, reference compound] | 51.4 |  | inhibited tumor growth [2, 4]: 61%; inhibited tumor growth [3, 4]: 58%
5 | CCN(c1cc(-c2ccc3c(c2)N(C(C)C)C(=O)C32CCOCC2)c(Cl)c(C(=O)NCc2c(OC)cc(C)[nH]c2=O)c1C)C1CCOCC1 [Example 52, 2-chloro-5-(ethyl(tetrahydro-2H-pyran-4-yl)amino)-3-(1-isopropyl-2-oxo-2′,3′,5′,6′-tetrahydrospiro[dihydroindole-3-1,4′-pyran]-6-yl)-N-((4-methoxy-6-methyl-2-oxo-1,2-dihydropyridin-3-yl)methyl)-6-methylbenzamide] |  | 2.1 | 
6 | CCN(c1cc(-c2ccc3c(c2)NC(=O)C32CCOCC2)cc(C(=O)NCc2c(OC)cc(C)[nH]c2=O)c1C)C1CCN(C)CC1 [Example 1, 3-(ethyl(1-methylpiperidin-4-yl)amino)-N-((4-methoxy-6-methyl-2-oxo-1,2-dihydropyridin-3-yl)methyl)-2-methyl-5-(2-oxo-2′,3′,5′,6′-tetrahydrospiro[dihydroindole-3,4′-pyran]-6-yl)benzamide] |  | 4.26 | 
7 | CCN(c1cc(-c2ccc3c(c2)CCC32CCN(CC(F)(F)F)CC2)cc(C(=O)NCc2c(OC)cc(C)[nH]c2=O)c1C)C1CCOCC1 [Example 36] | 4.39 |  | 
8 | CCN(c1cc(-c2ccc3c(c2)N(C(C)=O)CC32CCOCC2)cc(C(=O)NCc2c(C)cc(C)[nH]c2=O)c1C)C1CCOCC1 [Example 74, 5-(1-acetyl-2′,3′,5′,6′-tetrahydrospiro[dihydroindole-3,4′-pyran]-6-yl)-N-((4,6-dimethyl-2-oxo-1,2-dihydropyridin-3-yl)methyl)-3-(ethyl(tetrahydro-2H-pyran-4-yl)amino)-2-methylbenzamide] |  | 3.1 | 
9 | CCN(c1cc(-c2ccc3c(c2)NC(=O)C32CCN(CC3CC3)CC2)cc(C(=O)NCc2c(C)cc(C)[nH]c2=O)c1C)C1CCOCC1 [Example 69, 5-(1′-(cyclopropylmethyl)-2-oxospiro[dihydroindole-3,4′-piperidine]-6-yl)-N-((4,6-dimethyl-2-oxo-1,2-dihydropyridin-3-yl)methyl)-3-(ethyl(tetrahydro-2H-pyran-4-yl)amino)-2-methylbenzamide] |  | 1.36 | 

Like-named read-outs stand apart in the source and are kept apart here.
